Sequences of proteins named here, by UniProt entry; tags and fusion partners are left off.
UniProt P41143, whole entry: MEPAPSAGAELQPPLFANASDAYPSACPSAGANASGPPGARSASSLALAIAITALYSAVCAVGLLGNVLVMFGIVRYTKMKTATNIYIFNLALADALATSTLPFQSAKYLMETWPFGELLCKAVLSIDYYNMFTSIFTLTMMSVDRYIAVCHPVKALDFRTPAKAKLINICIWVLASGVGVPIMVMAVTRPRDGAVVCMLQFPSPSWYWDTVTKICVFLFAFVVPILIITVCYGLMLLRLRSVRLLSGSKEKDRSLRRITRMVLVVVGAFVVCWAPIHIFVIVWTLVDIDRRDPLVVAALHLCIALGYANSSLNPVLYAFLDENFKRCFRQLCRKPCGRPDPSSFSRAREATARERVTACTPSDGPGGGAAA

In ChEMBL document CHEMBL1153304, “2,4-Diaminopyridine delta-opioid receptor agonists and their associated hERG pharmacology” (Bioorg Med Chem Lett, 2009):

Target: Delta-type opioid receptor (Homo sapiens, UniProt P41143)
Test: Agonist activity at delta opioid receptor expressed in CHO cells assessed as inhibition of forskolin-stimulated cAMP production by ALPHAscreen assay

Compared with `CC(=O)N(c1ccccc1)C1CCN(c2cc(N)ccn2)CC1`, `Nc1ccnc(N2CCC(N(C(=O)C3CC3)c3ccccn3)CC2)c1` is 1.9-fold lower in EC50: 207 nM for the first, 108 nM for the second.

First: Nc1ccnc(N2CCC(N(C(=O)C3CCCCC3)c3ccccn3)CC2)c1
Second: COc1cccc(C(=O)N(c2ccccn2)C2CCN(c3cc(N)ccn3)CC2)c1
The EC50 of the first is 1.7-fold lower: 30 nM for the first, 52 nM for the second. The first is the more potent here.

For `COc1ccc(C(=O)N(c2cc(C)ccn2)C2CCN(c3cc(N)ccn3)CC2)cc1`, the EC50 was 9 nM.
